Assay results: PubChem BioAssay AID1273 (Columbia University Molecular Screening Center, 2008)
This is a selection; strong and weak results do not stand in their true shares. Some of these compounds have results that are not shown, active ones among them. Active and inactive are the calls of the source.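 The calls were made as follows: active = inhibition above the mean plus 3 SD, with well images judged a real hit on visual review (cut at about 60% in these data, passing the limit was not always enough); inconclusive = inhibition over the cutoff but images rejected on review; inactive = inhibition not above the cutoff.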

Experiment: insulin gene promoter suppression in islet cells – imaging, TRM-6 cells (human fetal islet line), eGFP reporter, cell count, primary screen (AID 1273)
Conditions: at 2 µM, hits give high values, reporter expression induced with tamoxifen

| Structure (SMILES) | inhibition |
| --- | --- |
| O=C(OC1CN2CCC1CC2)C(CO)(c1ccccc1)c1ccccc1 (stereo not given) | inactive: -2.78% |
| CN(C)c1cccc(C(=O)NCC2(N(C)C)CCCCC2)c1 | inactive: 14.3% |
| CN(C)C1CCCC1OC(=O)C(O)(c1ccccc1)c1ccccc1 (stereo not given) | inactive: 11.8% |
| CCN1CCCC(OC(=O)C2(O)c3ccccc3C=Cc3ccccc32)C1 (stereo not given) | inactive: -115% |
| CC(C)N1C(=O)CC2(CCN(CCOC(=O)C(O)(c3ccccc3)c3ccccc3)CC2)C1=O | inactive: -3.23% |
